# Source: US9220795B2, “Indole derivatives” (priority 2011, dated 2015)
# Test: In vivo biodistribution method
# Design: species or system Adult male Wistar rats
# Description: Imaging agents of the invention were tested in an in vivo biodistribution model along with a previous tetracyclic imaging agent (from co-pending patent application PCT/EP2009/062827; synthesis described in Example 18 below).
compound,measurement,setting,value
"CCN(CC)C(=O)C1CCCc2c1c1cc(F)ccc1n2CC[18F] (centres unmarked) [Imaging agent 9, 6-Fluoro-9-(2-[^18F]fluoro-ethyl)-2,3,4,9-tetrahydro-1H-carbazole-4-carboxylic acid diethylamide]",OB: Str 30 min,ratio olfactory bulb to striatum at 30 min,3.72
same,Str 2: 30 min,ratio striatum 2 min to 30 min,4.27
